Test results: publication PMC9415951 (Viruses, 2022)

Target: bovine thrombin (Bos taurus, UniProt P00735)
Experiment: Thrombin inhibition assay (chromogenic substrate S-2238)
Type: biochemical
Conditions: Cheng-Prousoff from IC50; mean of three measurements; read-out: Enzyme Inhibition, Ki, Thrombin

`CC(C)N1CCC(C(=O)Nc2ccccc2OCc2cc(-c3ccc(Cl)s3)on2)CC1` [Compound 2] gave a Ki of 11 µM.
